# Data published in patent US20260097126A1, “PHARMACEUTICAL FORMULATIONS AND METHODS FOR THE TREATMENT OF METABOLIC AND LIVER DISORDERS” (priority 2022, published 2026).
# Key:
# [1] = Another pharmacokinetic study using tirzepatide; format: in vivo
# GIP receptor [2] = biological target: T1, GIP receptor (Homo sapiens, UniProt P48546); assay: HSA modulated binding assay, GIP receptor
# T1 sequence (P48546 22-466): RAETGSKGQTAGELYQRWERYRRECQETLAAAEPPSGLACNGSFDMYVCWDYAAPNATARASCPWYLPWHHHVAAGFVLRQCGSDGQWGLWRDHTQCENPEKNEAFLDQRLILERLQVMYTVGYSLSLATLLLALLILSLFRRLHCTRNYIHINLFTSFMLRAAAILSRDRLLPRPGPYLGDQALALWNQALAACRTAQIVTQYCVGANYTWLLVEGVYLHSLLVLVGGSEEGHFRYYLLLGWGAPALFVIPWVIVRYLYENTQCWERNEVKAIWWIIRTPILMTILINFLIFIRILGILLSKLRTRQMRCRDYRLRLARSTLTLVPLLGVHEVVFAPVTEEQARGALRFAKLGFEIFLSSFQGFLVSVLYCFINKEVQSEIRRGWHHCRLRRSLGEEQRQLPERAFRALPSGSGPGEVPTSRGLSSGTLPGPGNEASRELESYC
# GIP receptor [3] = biological target: T1, GIP receptor; assay: TagLite binding assay, GIP receptor; settings: read-out: GIP receptor IC 50
substance,measurement,setting,value
tirzepatide,half-life,[1]; tirzepatide 0.2 mg/kg in 0.1% bovine serum albumin in phosphate buffered saline solution,66.2 h
same,half-life,[1]; tirzepatide 0.2 mg/kg in 40% propylene glycol and 60% 10 mM pH 6 citrate buffer solution,59.8 h
same,IC50,"GIP receptor [2]; 0% human serum albumin, read-out: GIP receptor IC 50, 0% HSA",316 nM
same,IC50,"GIP receptor [2]; read-out: GIP receptor IC 50, 2% HSA, 2% human serum albumin",1840 nM
same,IC50,GIP receptor [3],188 nM
